Our source for the proliferation values is PubChem BioAssay AID2380 (Sanford-Burnham Center for Chemical Genomics, 2010).

The list shows a part of the results, in another mix than the full data. Some salts and complexes are drawn in separate pieces, as the source files them; their charges need not balance. Active and inactive are the calls of the source.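 How the source made its calls: active means compounds whose signal lies at least 3.5 SD above the mean of all wells on their plate; inactive means the rest.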

This assay in a line: small molecules increasing insulinoma cell replication – ATP luminescence, uHTS, primary screen (AID 2380).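 Further: 0% = DMSO-treated cells in low-serum medium and 100% = 10% serum control.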 Conditions: MIN6 cells proliferation, ATPlite luminescence, 48 h; at 10 µM; active compounds read high; 100% = growth in 10% serum; cells starved in 0.2% serum. (Cellular ATP, detected with luciferase, serves as a proxy for viable cell number.)
On to `Cc1nc2ccc3ccccc3c2s1.O=[N+]([O-])c1cc([N+](=O)[O-])c(O)c([N+](=O)[O-])c1`, for which the proliferation was inactive: 0.1%.
The value for `O=[N+]([O-])c1cc([N+](=O)[O-])c(-c2cnn(-c3ccccc3)c2)c([N+](=O)[O-])c1` was inactive: -5.86%; that for `O=[N+]([O-])c1cc([N+](=O)[O-])c(-n2nnc3ccccc32)c([N+](=O)[O-])c1` was inactive: -5.01%; that for `CP(=O)(Nc1ccc(SC(F)(F)F)cc1)Oc1ccccc1` (configuration not stated) was inactive: 0%.
`CCCOc1ccc(NP(C)(=O)Oc2ccc(Cl)cc2)cc1` (configuration not stated): the proliferation was inactive: 1.63%.
For `COc1ccccc1OP(C)(=O)Nc1c(C)cccc1C` (configuration not stated) the value was inactive: 0.92%.
For `CN1CCCCC1COC(=O)C1(O)c2ccccc2CCc2ccccc21` (configuration not stated), the proliferation was inactive: 0%.
`O=[N+]([O-])c1cc([N+](=O)[O-])c(Nc2nnnn2CCO)c([N+](=O)[O-])c1`: the proliferation is inactive: -1.9%.
For `CC1=C2N=C(C=C3N=C(C(C)=C4[N-][C@@](C)([C@@H]5N=C1[C@](C)(CCC(=O)NC[C@@H](C)OP(=O)([O-])O[C@H]1[C@@H](O)[C@@H](n6cnc7cc(C)c(C)cc76)O[C@@H]1CO)[C@H]5CC(N)=O)[C@@](C)(CC(N)=O)[C@@H]4CCC(N)=O)[C@@](C)(CC(N)=O)[C@@H]3CCC(N)=O)C(C)(C)[C@@H]2CCC(N)=O.[C-]#N.[Co+3]` the value was inactive: 1.2%.
As for `CCOC(=O)C(CC)C1=NC(C)(C)Cc2ccccc21.O=[N+]([O-])c1cc([N+](=O)[O-])c(O)c([N+](=O)[O-])c1` (configuration not stated), the proliferation was inactive: -2.78%.
As to `CC1=NCCc2c1[nH]c1ccccc21.O=[N+]([O-])c1cc([N+](=O)[O-])c(O)c([N+](=O)[O-])c1`, the proliferation was inactive: -0.19%.
Turning to `O=C(O)c1cccc(Nc2c([N+](=O)[O-])cc([N+](=O)[O-])cc2[N+](=O)[O-])c1`, the proliferation is inactive: -1.08%.
Turning to `Cc1ccc(C)c(NP(C)(=O)Oc2ccccc2)c1` (configuration not stated), the proliferation was inactive: -1.87%.
The value for `CP(=O)(Nc1cccc(Br)c1)Oc1ccccc1` (configuration not stated) was inactive: -1.87%; that for `Cc1cc(C)cc(OP(C)(=O)Nc2ccccn2)c1` (configuration not stated) was inactive: -0.12%; that for `CCOC(=O)c1ccc(NP(C)(=O)Oc2cc(C)cc(C)c2)cc1` (configuration not stated) was inactive: 0%.
Consider `Cc1cc(C)cc(OP(C)(=O)Nc2ccc(C)cc2C)c1` (configuration not stated), for which the proliferation is inactive: -1.41%.
For `COc1ccccc1OP(C)(=O)Nc1cccc(Br)c1` (configuration not stated), the proliferation is inactive: 4.71%.
The value for `CCN(CC)CCCOC(=O)C(O)(c1ccccc1)c1ccccc1` was inactive: 0.03%; that for `Cc1cc(C)cc(OP(C)(N)=O)c1` (configuration not stated) was inactive: -3.16%.
As for `COc1ccccc1OP(C)(=O)Nc1cc(Cl)ccc1C` (configuration not stated), the proliferation is inactive: 0.67%.
For `COc1ccc(OP(C)(=O)Nc2cccc(F)c2)cc1` (configuration not stated) the value was inactive: 0.18%; for `COc1ccccc1OP(C)(=O)Nc1ccc(C)cc1` (configuration not stated), inactive: -2.01%.
For the molecule `Cc1ccc(NP(C)(=O)Oc2ccccc2)c(C)c1` (configuration not stated), the proliferation is inactive: 0%.
As to `CCOC(=O)c1ccc(NP(C)(=O)Oc2ccccc2)cc1` (configuration not stated), the proliferation was inactive: 0%.
Turning to `CC(C)(C)c1ccc(OP(C)(=O)Nc2ccc(SC(F)(F)F)cc2)cc1` (configuration not stated), the proliferation was inactive: -2.76%.
In the case of `Cc1cccc(C)c1OP(C)(N)=O` (configuration not stated), the proliferation is inactive: -0.16%.
Consider `O=[N+]([O-])c1cc([N+](=O)[O-])c(Nc2cccnc2)c([N+](=O)[O-])c1`, for which the proliferation is inactive: -7.87%.
For `CP(=O)(Nc1ccccc1Br)Oc1ccccc1` (configuration not stated), the proliferation is inactive: -3.76%.
As for `COc1ccccc1OP(C)(=O)Nc1ccccc1` (configuration not stated), the proliferation was inactive: -2.21%.
Regarding `CP(=S)(Nn1cnnc1)Oc1ccccc1` (configuration not stated), the proliferation was inactive: -1.22%.
As for `CP(=O)(Nc1ccccn1)Oc1ccc(Cl)cc1` (configuration not stated), the proliferation was inactive: -2.74%.
The value for `CCOC(=O)c1ccc(NP(C)(=O)Oc2ccc(OC)cc2)cc1` (configuration not stated) was inactive: 0%; that for `O=[N+]([O-])c1cc([N+](=O)[O-])c(O)c([N+](=O)[O-])c1.c1ccc(Oc2ccncc2)cc1` was inactive: 1.11%; that for `CCOP(C)(=S)SCC(=O)NC(C)C(=O)O` (configuration not stated) was inactive: -0.13%.
As to `CCc1ccc(OP(C)(=O)N2CCN(c3ccc([N+](=O)[O-])cc3)CC2)cc1` (configuration not stated), the proliferation was inactive: 0.06%.
With `CP(=O)(NC(=O)Nc1ccccc1)Oc1ccccc1` (configuration not stated), the proliferation is inactive: -1.2%.
For `Cc1cc(C)cc(OP(C)(=O)Nc2ccc(SC(F)(F)F)cc2)c1` (configuration not stated) the value was inactive: -2.38%; for `Cc1cccc(C)c1OP(C)(=O)Nc1ccc(SC(F)(F)F)cc1` (configuration not stated), inactive: -6.92%.
For `CP(=O)(Nc1ccc(SC(F)(F)F)cc1)Oc1ccc(Cl)cc1` (configuration not stated), the proliferation was inactive: -1.85%.
Regarding `CP(=O)(Oc1ccccc1)OC(c1ccccc1)C(F)(F)F` (configuration not stated), the proliferation is inactive: 1.68%.
As for `CN(C)C(=O)c1c([N+](=O)[O-])cc([N+](=O)[O-])cc1[N+](=O)[O-]`, the proliferation is inactive: -5.65%.
Consider `CC(C)(C)c1ccc(OP(C)(=O)O)cc1`, for which the proliferation is inactive: 2.35%.
As to `COc1ccccc1OP(C)(=O)Nc1ccccc1Br` (configuration not stated), the proliferation was inactive: -0.88%.
Consider `CP(=O)(Nc1ccc(Cl)cc1)Oc1ccc(F)cc1` (configuration not stated), for which the proliferation is inactive: -3.24%.
As for `COc1ccccc1OP(C)(=O)Nc1c(C)n(C)n(-c2ccccc2)c1=O` (configuration not stated), the proliferation was inactive: -0.99%.
For `O=C(OCCCN1CCCC1)C(O)(c1ccccc1)C1CCCCC1` (configuration not stated) the value was inactive: -2.29%.
On to `CP(=O)(Oc1ccccc1)N1CCOC1=O` (configuration not stated), for which the proliferation is inactive: 0.03%.
`CCc1ccc(OP(C)(=O)Nc2cccnc2)cc1` (configuration not stated): the proliferation was inactive: -2.41%.
In the case of `CCN(CC)CC(O)COC(=O)C(O)(c1ccccc1)C1CCCCC1` (configuration not stated), the proliferation was inactive: -0.74%.
For `COc1ccc(OP(C)(=O)Nc2ccc(Br)cc2)cc1` (configuration not stated), the proliferation was inactive: -1.06%.
As to `CCOC(=O)c1ccc(NP(C)(=O)Oc2ccc(Cl)cc2)cc1` (configuration not stated), the proliferation is inactive: -1.99%.
With `CP(=O)(OC12CC3CC(CC(C3)C1)C2)OC12CC3CC(CC(C3)C1)C2`, the proliferation was inactive: -4.94%.
On to `Nc1ccc2c(ccc3cccnc32)n1.O=[N+]([O-])c1cc([N+](=O)[O-])c(O)c([N+](=O)[O-])c1`, for which the proliferation was inactive: -1.31%.
The value for `CP(=O)(OCCOc1ccccc1)OCCOc1ccccc1` was inactive: -2.78%; that for `CP(=O)(Nc1ccc(Cl)cc1Cl)Oc1ccccc1` (configuration not stated) was inactive: 0.14%; that for `Cc1nc2ccc3ccccc3c2o1.O=[N+]([O-])c1cc([N+](=O)[O-])c(O)c([N+](=O)[O-])c1` was inactive: -5.82%.
For `COc1ccccc1OP(C)(=O)Nc1ccc(C)c(C)c1` (configuration not stated) the value was inactive: -1.79%.
Turning to `COc1ccc(OP(C)(=O)Nc2ccccc2Br)cc1` (configuration not stated), the proliferation is inactive: -0.13%.
As to `Cc1cc(C)cc(OP(C)(=O)Nc2cccc(C(F)(F)F)c2)c1` (configuration not stated), the proliferation is inactive: 1.3%.
On to `CP(=O)(Nc1ccccn1)Oc1ccccc1` (configuration not stated), for which the proliferation was inactive: -0.17%.
`COc1ccccc1OP(C)(=O)Nc1ccc(C)cc1C` (configuration not stated): the proliferation was inactive: -2.88%.
Take `CCc1ccc(OP(C)(=O)O)cc1`: the proliferation is inactive: 0.56%.
Regarding `O=[N+]([O-])c1cc([N+](=O)[O-])c(Nc2ccccn2)c([N+](=O)[O-])c1`, the proliferation is inactive: -5.5%.
As to `Cc1c(NP(C)(=O)Oc2ccc(C(C)C)cc2)c(=O)n(-c2ccccc2)n1C` (configuration not stated), the proliferation was inactive: 0.67%.
For the molecule `COc1ccc(OP(C)(=O)Nc2ccccn2)cc1` (configuration not stated), the proliferation is inactive: -2.46%.
Turning to `CN(C)CCOC(=O)C(O)(c1ccccc1)C1CCCC1` (configuration not stated), the proliferation was inactive: 0.25%.
Regarding `COc1ccccc1OP(C)(=O)Nc1ccc(Br)cc1` (configuration not stated), the proliferation is inactive: 0.53%.
Take `COc1ccc2c(c1O)-c1c(O)c(OC)cc3c1[C@H](C2)[N+](C)(C)CC3.O=[N+]([O-])c1cc([N+](=O)[O-])c([O-])c([N+](=O)[O-])c1[O-]`: the proliferation is inactive: 5.87%.
`O=C(OC1CN2CCC1CC2)c1ccc([N+](=O)[O-])cc1` (configuration not stated): the proliferation is inactive: -1.31%.
For `O=C(OCCN1CCN(CCOCc2ccccc2)CC1)C(O)(c1ccccc1)c1ccccc1` the value was inactive: 0%.
With `CP(=O)(Nc1ccccc1F)Oc1ccccc1` (configuration not stated), the proliferation is inactive: -1.48%.
With `CC(C)c1ccc(OP(C)(=O)Nc2ccc(SC(F)(F)F)cc2)cc1` (configuration not stated), the proliferation was inactive: 0%.
For `CP(=O)(Nc1ccccc1)Oc1ccc(F)cc1` (configuration not stated), the proliferation was inactive: -0.93%.
Turning to `CCCCCOc1ccc(NP(C)(=O)Oc2ccc(Cl)cc2Cl)cc1` (configuration not stated), the proliferation was inactive: -6.38%.
On to `O=[N+]([O-])c1cc([N+](=O)[O-])c(OC2CCCCC2O)c([N+](=O)[O-])c1` (configuration not stated), for which the proliferation was inactive: 0.26%.
Regarding `CCN(CC)CCCOC(=O)C(O)(c1ccccc1)C1CCCCC1` (configuration not stated), the proliferation is inactive: 0.17%.
In the case of `CCOC(=O)c1ccc(NP(C)(=O)Oc2ccc(F)cc2)cc1` (configuration not stated), the proliferation is inactive: 1%.
As to `COc1ccc(OP(C)(=O)Nc2ccc(SC(F)(F)F)cc2)cc1` (configuration not stated), the proliferation is inactive: -3.83%.
The value for `O=[N+]([O-])c1cc([N+](=O)[O-])c(NCC2CCS(=O)(=O)C2)c([N+](=O)[O-])c1` (configuration not stated) was inactive: -0.93%.
The value for `CN(C)CCOC(=O)C(O)(c1ccccc1)C1CCCCC1` (configuration not stated) was inactive: -1.63%.
The value for `COc1ccc(NP(C)(=O)Oc2ccccc2OC)cc1` (configuration not stated) was inactive: 0.05%; that for `COc1ccc(OP(C)(=O)Nc2cccc(Br)c2)cc1` (configuration not stated) was inactive: -2.87%.
On to `Cc1ccccc1NP(C)(=O)Nc1ccccc1C`, for which the proliferation is inactive: -0.98%.
With `CP(=O)(Nc1ccc2c(c1)OCCO2)Oc1ccccc1` (configuration not stated), the proliferation is inactive: -2.09%.
`CCOP(C)(=S)SCC(=O)NC(C)(CC)C(=O)O` (configuration not stated): the proliferation was inactive: 1.16%.
On to `CP(=O)(Nc1ccc(SC(F)(F)F)cc1)Oc1ccc(F)cc1` (configuration not stated), for which the proliferation was inactive: 2.61%.
